The entries are a selection whose mix differs from that of the whole data set. Calls of active or inactive are those of the source. Cut-off read from the data, not from the text of the source: active = inhibition above about 30%; inactive = the rest.

The chains behind the UniProt entries cited, without tags or fusion partners. Where a name states a change or a piece, a line headed by the entry shows the natural chain unless it says otherwise.
UniProt Q96RU2: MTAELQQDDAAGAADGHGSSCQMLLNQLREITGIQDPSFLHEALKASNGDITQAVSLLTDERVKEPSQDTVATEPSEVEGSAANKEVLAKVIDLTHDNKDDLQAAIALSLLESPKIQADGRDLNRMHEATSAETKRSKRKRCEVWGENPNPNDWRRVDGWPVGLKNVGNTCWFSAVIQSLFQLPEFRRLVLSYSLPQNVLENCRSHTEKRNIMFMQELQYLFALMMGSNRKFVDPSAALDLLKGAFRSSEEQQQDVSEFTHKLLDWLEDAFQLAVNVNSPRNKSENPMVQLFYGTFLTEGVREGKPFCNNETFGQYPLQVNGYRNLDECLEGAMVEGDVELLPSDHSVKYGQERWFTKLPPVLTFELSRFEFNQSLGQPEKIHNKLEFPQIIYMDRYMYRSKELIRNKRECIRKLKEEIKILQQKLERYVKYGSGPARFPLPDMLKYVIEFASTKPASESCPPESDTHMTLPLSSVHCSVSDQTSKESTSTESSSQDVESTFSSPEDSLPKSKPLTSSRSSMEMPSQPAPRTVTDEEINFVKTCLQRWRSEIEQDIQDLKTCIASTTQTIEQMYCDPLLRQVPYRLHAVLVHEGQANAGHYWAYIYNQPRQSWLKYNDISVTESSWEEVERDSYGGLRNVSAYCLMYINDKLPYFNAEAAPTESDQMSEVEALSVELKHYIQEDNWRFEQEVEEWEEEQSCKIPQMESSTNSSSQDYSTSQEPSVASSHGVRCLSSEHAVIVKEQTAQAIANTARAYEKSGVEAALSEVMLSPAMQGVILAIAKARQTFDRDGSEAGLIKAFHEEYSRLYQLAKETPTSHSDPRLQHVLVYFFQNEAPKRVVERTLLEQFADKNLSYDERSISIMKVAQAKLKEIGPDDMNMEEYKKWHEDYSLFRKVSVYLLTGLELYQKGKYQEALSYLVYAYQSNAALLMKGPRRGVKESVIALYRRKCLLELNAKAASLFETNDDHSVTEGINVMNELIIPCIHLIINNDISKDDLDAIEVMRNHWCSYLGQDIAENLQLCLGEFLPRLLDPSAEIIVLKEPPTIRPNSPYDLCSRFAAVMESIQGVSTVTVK

The target in the experiment is Ubiquitin carboxyl-terminal hydrolase 28 (Homo sapiens) (UniProt Q96RU2). Briefly: blocks human USP28 ubiquitin-rhodamine cleavage (AID 1645857). Conditions: purified USP28, Ub-rhodamine cleavage fluorescence, 30 min; at 25 µM; hits give high values.
By inhibition is commonly meant the drop in the measured response relative to a control, in per cent. Regarding `CS(=O)(=O)c1ccc(C(=O)N(Cc2ccco2)C2CCN(CCc3ccccn3)CC2)cc1`, the inhibition is inactive: -35.1%.

`N#Cc1cccc(C(=O)N(Cc2cccnc2)C2CCN(CCc3ccccn3)CC2)c1`: the inhibition was inactive: -25.8%.

On to `CS(=O)(=O)c1ccc(C(=O)N(Cc2cccnc2)C2CCN(CCc3ccc(Cl)cc3)CC2)cc1`, for which the inhibition is inactive: -82.6%.

Take `N#Cc1cccc(C(=O)N(Cc2ccco2)C2CCN(CCc3ccccn3)CC2)c1`: the inhibition was inactive: 0.0874%.

`CN1C(=O)C2C(NC(=NCc3ccco3)N2CCc2ccccc2)N(C)C1=O` (stereo unspecified): the inhibition was inactive: -8.13%.

Turning to `COc1ccc(CCN2CCC(N(Cc3ccco3)C(=O)c3ccc(S(C)(=O)=O)cc3)CC2)cc1`, the inhibition is inactive: -25.6%.

For the compound `N#Cc1cccc(C(=O)N(Cc2ccco2)C2CCN(CCc3ccc(Cl)cc3)CC2)c1`, the inhibition is inactive: -20.2%.

`Cc1[nH]c2c(N(C(=O)Nc3ccccc3)C3CCN(Cc4ccccc4)CC3)cccc2c1C`: the inhibition is inactive: -13%.

Turning to `COc1ccc(CCN2CCC(N(Cc3cccnc3)C(=O)c3cccc(C#N)c3)CC2)cc1`, the inhibition was inactive: -32%.

As to `O=C(c1ccc2c(c1)OCO2)N(Cc1ccco1)C1CCN(CCc2ccccn2)CC1`, the inhibition was inactive: -21.9%.

Consider `O=C(COC(=O)C(O)(c1ccccc1)c1ccccc1)NCc1ccc2c(c1)OCO2`, for which the inhibition is inactive: -8.78%.

The record behind these values is PubChem BioAssay AID1645857 (Buhrlage Lab, Dana-Farber Cancer Institute and Novartis …, 2021).
